{
  "sequences": {"note": "Sequences of proteins named here, by UniProt entry; tags and fusion partners are left off.", "UniProt Q63009, whole entry": "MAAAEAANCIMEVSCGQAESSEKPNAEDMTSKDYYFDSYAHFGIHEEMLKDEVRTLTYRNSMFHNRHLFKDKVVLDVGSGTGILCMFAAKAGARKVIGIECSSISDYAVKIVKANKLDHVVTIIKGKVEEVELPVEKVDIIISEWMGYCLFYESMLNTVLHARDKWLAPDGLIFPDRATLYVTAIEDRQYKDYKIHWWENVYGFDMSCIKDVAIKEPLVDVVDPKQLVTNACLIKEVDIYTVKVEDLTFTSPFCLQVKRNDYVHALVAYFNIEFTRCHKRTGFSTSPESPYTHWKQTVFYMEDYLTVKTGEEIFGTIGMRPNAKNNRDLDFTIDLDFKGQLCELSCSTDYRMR"},
  "source": "paper PMC4151304",
  "about": "(European journal of medicinal chemistry, 2012)",
  "target": "PRMT1 (Rattus norvegicus, UniProt Q63009)",
  "experiment": "Radioactive methyltransferase assay, PRMT1",
  "assay_type": "biochemical",
  "conditions": "IC50, His6x-PRMT1 0.05 μM, 2 μM H4(1-20), 5 μM [14C]-SAM, 30°C",
  "data": [
    {"smiles": "CCn1/c(=C\\C=C\\C2=[N+](CC)c3cccc4cccc2c34)c2cccc3cccc1c32.[I-]", "note": "[compound 11, 1-ethyl-2-[3-(1-ethylbenz[c,d]indol-2(1H)-ylidene)-1-propen-1-yl]-iodide]", "values": [
      {"measurement": "IC50", "value": "4.1 ± 0.1", "unit": "µM"}
    ]}
  ]
}
